The record followed here is patent US8648078B2, “PLK inhibitor salts” (Nerviano Medical Sciences S.R.L., priority 2009, dated 2014).

The nature of the series: Aqueous solubility of compound 937 salts and free base (excess solid stirred in water, filtered, HPLC). In kind it is physicochemical. The settings on record: RT, stirred 4 hours, excess solid (target 10 mg/ml). From the text: The obtained preparations have been filtered and analyzed by means of HPLC.

For `CN1CCN(c2ccc(OC(F)(F)F)c(Nc3ncc4c(n3)-c3c(c(C(N)=O)nn3CCO)CC4)c2)CC1.O=C(O)C(O)C(O)C(=O)O` [compound 937 L-tartrate salt], the aqueous solubility was found to be 1900 µg/mL.
